The text below walks through data of patent US20180016325.

In the data set the test system is MP-LAFG-PABC-(piperazinoBOR) LA-104 as antibody conjugate AAC-193.

In the case of human cathepsin B, the Percent cleavage pH 5 amounted to 100% and the Percent cleavage pH 7.2 was 64%.
